Here are results for 3 substances from patent publication US20140358576A1, “SYSTEM AND METHOD FOR SURVEILLANCE AND EVALUATION OF SAFETY RISKS ASSOCIATED WITH MEDICAL INTERVENTIONS” (Adverse Events, Inc., priority 2013, published 2014).

A short description of series [1]: RxScore calculation, Example 1 (FAERS components plus FDA and DEA components).
Series [2] is described as follows: RxScore calculation, Example 2 (FAERS components with event reporter Importance Weighting, no FDA warning/DEA schedule). The conditions noted are these: for ROR: Example 2 disproportionality measure component score, up to 20 points.

Regarding coagulation factor viia, recombinant, in series [1] (Example 1, maximum of 100 total points, FAERS primary suspect case reports), the RxScore is listed as 81.61. For the same substance, the “Condition Seriousness” value in series [1] (Example 1 component score, up to 8.68 points) is given as 3.51. Moreover, the “Adverse Event Seriousness” value in series [1] (Example 1 component score, up to 20.03 points) is recorded as 11.20. Further, the Outcome in series [1] (Example 1 component score, up to 25.65 points, comorbidity adjusted) is listed as 18.17. Moreover, in series [1] (Example 1 disproportionality measure component score, up to 14.98 points), the ROR was 2.54. Moreover, the Literature in series [1] (combined scores from FDA MedGuides, FDA boxed warnings, and DEA schedules) is 12.5.
Consider icodextrin, for which, in series [2] (Example 2, maximum of 100 total points, Importance Weighting applied), the RxScore is 73.08. Besides, the “Adverse Event Seriousness” value in series [2] (Example 2 component score, up to 27 points) was 15.16. The Outcome in series [2] (Example 2 component score, up to 35 points, comorbidity adjusted) was 22.03. Moreover, the ROR in series [2] is 5.55. The “Report Priority” value in series [2] (Example 2 report type component score, up to 6 points) was 5.51.
For sodium iodide i-131, in series [2], the ROR is given as 14.71.
